# AlphaSeq binding of Ab-14 heavy chain variants to a spike HR2 peptide

Target peptide (SARS-CoV-2 spike, HR2 region): PDVDLGDISGINAS

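The starting antibody came from a phage panning campaign against this peptide. Library AAYL49 holds single substitutions and randomly drawn double and triple substitutions in the CDRs. Affinity was read by AlphaSeq, a pooled yeast mating assay with surface-displayed partners. Pairs that bind mate more often; barcode pairs of the diploids are counted by sequencing. Each replicate has its own calibration line, from reference interactions of the BCL2 family. Mating was done three times.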

The variants keep the light chain, the linker and the frameworks of Ab-14 (scFv order VH, the linker GGGGSGGGGSGGGGS, VL).
VH: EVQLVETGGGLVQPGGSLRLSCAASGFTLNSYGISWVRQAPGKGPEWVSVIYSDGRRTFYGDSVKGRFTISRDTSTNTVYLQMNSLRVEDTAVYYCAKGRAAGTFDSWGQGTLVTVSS
VL: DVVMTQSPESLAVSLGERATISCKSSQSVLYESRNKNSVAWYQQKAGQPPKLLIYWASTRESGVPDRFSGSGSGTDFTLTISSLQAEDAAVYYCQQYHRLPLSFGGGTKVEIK

Changes read parent residue, position, new residue, counted from the first residue of the VH shown.
All variants listed here change F59 of the VH, counted from its first residue.
Numbers give log10(Kd / nM), so 0 is 1 nM and 3 is 1 µM. Smaller is tighter.
Replicates are averaged; those with no signal do not enter the mean.
A pair that was not seen in that replicate is written "ND"; this usually means weak binding, but a binder can also be missed.

For D54W+R57V+F59M, the assay gave ND, 4.68, 5.38 (mean 5.03). For S31L+F59W+Y60H, the assay gave ND, ND, ND. Variant F59E showed 1.28, 1.61, 1.36 (mean 1.42). Variant S53C+F59K+G103W showed ND, ND, ND. For S53E+F59N+T104R, the assay gave ND, 4.57, ND. With F27I+Y52S+F59D the result was ND, ND, ND. Variant T58G+F59Q+F105Y showed ND, ND, ND.

Variant V50M+F59S+T104H gave ND, 4.06, ND. For V50G+S53H+F59W, the assay gave 5.91, ND, 4.23 (mean 5.07). Variant G26A+T58E+F59Y gave 2.24, 2.28, 2.28 (mean 2.26). Variant T28R+G33D+F59M showed ND, 3.85, ND. For F59A+G61D+V64E, the assay gave ND, ND, ND. Variant Y32C+F59W+G99Q showed ND, 4.84, ND. For S53W+F59G, the assay gave 2.51, 2.68, 2.74 (mean 2.65).

For T28I+S35Q+F59M, the assay gave ND, ND, ND. Variant F59E+T104L+S107I showed ND, ND, ND. Variant Y52G+F59M+Y60E gave 4.57, 3.67, 4.75 (mean 4.33). With S31H+I34N+F59S the result was ND, ND, ND. With F27N+F59C the result was ND, ND, ND. For S53F+R56K+F59Q, the assay gave 2.20, 1.75, 2.61 (mean 2.19). Variant T28P+Y32M+F59R gave ND, ND, ND.

With D54N+F59C+K65S the result was ND, ND, ND. Variant I51A+F59N+T104W gave 2.23, 2.38, 2.33 (mean 2.31). With F59H+R100P+F105K the result was 1.97, 1.79, 1.82 (mean 1.86). Variant Y52H+G55D+F59E showed ND, ND, ND. With R56M+F59Y+V64L the result was 3.34, 2.61, 2.33 (mean 2.76). Variant L29F+F59C+D106S showed ND, 2.46, ND. For F59P+Y60N+G103Y, the assay gave ND, ND, ND.

For F59P+S63C+A101N, the assay gave ND, 2.58, ND. For S31E+F59N+D62T, the assay gave 1.55, 1.44, 1.58 (mean 1.52).

From the list, the first 3 with no signal in any replicate:

For S31L+F59W+Y60H, the assay gave ND, ND, ND.
For S53C+F59K+G103W, the assay gave ND, ND, ND.
For F27I+Y52S+F59D, the assay gave ND, ND, ND.

Nonspecific signal, from three strains lacking the peptide, appeared in 15% of pairings of library AAYL49, centred on 4.06 (5% of these signals below 2.83); values are not corrected for it.

The measurements come from Engelhart et al. 2022 (doi:10.1038/s41597-022-01779-4) through the FLAb antibody collection.